{"sequences": {"note": "By UniProt entry, the sequences of proteins in these tests, tags left out. Where a name states a change or a piece, a line headed by the entry shows the natural chain unless it says otherwise.", "UniProt P08518, whole entry": "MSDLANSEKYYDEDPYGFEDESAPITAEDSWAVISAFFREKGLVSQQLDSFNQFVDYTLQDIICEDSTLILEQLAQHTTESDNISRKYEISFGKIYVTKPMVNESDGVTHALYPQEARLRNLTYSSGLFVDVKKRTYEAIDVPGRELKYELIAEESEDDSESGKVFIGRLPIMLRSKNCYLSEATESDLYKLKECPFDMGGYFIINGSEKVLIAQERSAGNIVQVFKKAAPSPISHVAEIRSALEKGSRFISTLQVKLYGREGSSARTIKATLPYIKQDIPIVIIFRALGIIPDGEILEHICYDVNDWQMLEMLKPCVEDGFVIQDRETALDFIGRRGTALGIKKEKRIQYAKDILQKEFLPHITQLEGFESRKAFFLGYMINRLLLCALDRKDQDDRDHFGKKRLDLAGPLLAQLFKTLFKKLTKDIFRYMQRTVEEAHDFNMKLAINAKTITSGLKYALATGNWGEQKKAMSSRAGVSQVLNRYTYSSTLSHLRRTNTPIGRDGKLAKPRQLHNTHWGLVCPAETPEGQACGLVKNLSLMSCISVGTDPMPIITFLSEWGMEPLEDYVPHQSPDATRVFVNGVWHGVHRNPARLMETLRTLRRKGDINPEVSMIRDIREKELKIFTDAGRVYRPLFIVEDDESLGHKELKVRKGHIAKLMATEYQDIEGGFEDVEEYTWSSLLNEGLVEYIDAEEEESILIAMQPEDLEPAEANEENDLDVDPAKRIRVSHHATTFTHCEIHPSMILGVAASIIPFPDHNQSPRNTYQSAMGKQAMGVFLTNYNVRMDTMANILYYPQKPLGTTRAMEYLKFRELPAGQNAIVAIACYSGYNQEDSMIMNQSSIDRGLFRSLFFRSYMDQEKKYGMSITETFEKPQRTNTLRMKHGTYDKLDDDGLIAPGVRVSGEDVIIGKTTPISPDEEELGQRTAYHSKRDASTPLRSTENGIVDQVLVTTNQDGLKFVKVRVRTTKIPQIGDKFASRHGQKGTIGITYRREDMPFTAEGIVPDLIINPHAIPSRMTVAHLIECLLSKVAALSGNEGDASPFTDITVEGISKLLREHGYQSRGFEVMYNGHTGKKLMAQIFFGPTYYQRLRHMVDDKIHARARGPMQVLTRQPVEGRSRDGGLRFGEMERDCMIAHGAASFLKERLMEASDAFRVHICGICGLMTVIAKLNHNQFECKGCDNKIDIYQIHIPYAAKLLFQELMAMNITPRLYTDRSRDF", "UniProt P53129": "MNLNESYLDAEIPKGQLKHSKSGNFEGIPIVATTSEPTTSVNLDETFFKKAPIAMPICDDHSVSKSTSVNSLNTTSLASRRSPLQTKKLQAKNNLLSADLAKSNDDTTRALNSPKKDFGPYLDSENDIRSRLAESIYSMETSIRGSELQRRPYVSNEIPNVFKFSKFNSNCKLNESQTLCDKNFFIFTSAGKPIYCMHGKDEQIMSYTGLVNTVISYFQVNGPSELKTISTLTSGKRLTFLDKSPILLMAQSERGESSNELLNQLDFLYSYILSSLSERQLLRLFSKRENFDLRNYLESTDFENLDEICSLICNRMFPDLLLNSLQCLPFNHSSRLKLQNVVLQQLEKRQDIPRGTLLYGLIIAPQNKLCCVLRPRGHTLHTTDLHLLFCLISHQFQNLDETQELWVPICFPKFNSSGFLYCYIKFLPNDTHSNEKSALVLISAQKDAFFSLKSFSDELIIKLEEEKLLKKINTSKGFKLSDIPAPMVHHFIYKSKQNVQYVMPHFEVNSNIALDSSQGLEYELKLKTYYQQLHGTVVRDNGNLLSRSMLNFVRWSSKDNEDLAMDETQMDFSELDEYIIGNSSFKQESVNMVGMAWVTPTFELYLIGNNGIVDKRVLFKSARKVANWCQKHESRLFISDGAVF", "UniProt Q03308": "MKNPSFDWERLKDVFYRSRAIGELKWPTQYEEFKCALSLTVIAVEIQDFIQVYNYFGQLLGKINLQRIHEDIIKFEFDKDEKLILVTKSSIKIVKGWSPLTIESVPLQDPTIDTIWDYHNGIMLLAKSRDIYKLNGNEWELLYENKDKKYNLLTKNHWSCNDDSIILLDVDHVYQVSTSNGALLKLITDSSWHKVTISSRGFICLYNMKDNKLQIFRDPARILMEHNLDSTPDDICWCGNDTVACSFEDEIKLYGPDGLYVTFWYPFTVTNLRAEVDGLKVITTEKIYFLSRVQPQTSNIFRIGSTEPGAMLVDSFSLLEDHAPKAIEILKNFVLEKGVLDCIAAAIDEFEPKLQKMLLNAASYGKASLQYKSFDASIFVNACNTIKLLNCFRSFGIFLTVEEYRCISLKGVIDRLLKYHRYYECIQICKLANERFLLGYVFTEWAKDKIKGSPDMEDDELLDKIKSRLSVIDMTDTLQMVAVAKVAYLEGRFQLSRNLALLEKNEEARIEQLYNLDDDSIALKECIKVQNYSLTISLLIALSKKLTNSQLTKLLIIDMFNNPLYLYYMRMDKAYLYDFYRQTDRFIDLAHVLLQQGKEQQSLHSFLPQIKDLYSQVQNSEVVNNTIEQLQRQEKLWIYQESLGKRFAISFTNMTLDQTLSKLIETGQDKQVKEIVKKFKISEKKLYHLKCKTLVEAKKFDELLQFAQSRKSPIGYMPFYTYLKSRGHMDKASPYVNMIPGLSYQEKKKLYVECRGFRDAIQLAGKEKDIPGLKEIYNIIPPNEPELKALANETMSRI", "UniProt P38959": "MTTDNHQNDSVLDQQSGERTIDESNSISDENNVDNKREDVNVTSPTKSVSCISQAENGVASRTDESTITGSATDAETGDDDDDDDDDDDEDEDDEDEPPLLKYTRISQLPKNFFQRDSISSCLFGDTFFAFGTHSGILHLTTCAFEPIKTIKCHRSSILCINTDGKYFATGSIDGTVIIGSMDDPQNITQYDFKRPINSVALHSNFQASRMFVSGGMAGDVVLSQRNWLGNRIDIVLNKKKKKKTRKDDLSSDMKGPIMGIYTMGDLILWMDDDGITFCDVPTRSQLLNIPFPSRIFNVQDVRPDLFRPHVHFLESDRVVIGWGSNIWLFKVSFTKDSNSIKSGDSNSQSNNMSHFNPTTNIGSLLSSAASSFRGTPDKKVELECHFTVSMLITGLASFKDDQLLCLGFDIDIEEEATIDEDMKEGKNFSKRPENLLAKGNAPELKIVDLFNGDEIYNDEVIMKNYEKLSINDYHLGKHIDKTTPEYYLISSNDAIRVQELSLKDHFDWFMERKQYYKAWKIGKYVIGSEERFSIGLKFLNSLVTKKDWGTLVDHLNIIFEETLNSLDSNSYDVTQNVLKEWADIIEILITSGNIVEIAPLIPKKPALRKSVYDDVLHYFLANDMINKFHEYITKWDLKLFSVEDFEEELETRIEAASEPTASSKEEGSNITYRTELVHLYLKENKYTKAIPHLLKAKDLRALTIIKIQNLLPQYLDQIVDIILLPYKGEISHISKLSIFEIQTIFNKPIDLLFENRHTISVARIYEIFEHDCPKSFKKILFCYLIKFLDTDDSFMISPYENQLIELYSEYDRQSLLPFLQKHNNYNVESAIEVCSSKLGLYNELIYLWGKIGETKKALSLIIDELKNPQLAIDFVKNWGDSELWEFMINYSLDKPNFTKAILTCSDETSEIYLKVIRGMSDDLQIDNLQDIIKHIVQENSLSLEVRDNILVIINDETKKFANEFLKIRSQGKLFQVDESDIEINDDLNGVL"}, "source": "paper PMC11066047", "assay_in_all_cases": "cross-link between two proteins; cross-linking mass spectrometry", "key": {"[1]": {"biological_target": "DNA-directed RNA polymerase II subunit RPB2 (UniProt P08518)"}, "[2]": {"biological_target": "Vacuolar fusion protein MON1 (UniProt P53129)"}, "[3]": {"biological_target": "Vacuolar protein sorting-associated protein 16 (UniProt Q03308)"}, "[4]": {"biological_target": "Vacuolar protein sorting-associated protein 41 (UniProt P38959)"}}, "note": "This is one part of the list."}
{"substance": "DNA-directed RNA polymerase II subunit RPB1, P04050", "values": [{"measurement": "listed as a hit", "setting": "[1]", "result": "yes"}]}
{"substance": "Vacuolar fusion protein CCZ1, P38273", "values": [{"measurement": "listed as a hit", "setting": "[2]", "result": "yes"}]}
{"substance": "Vacuolar protein sorting-associated protein 41, P38959", "values": [{"measurement": "listed as a hit", "setting": "[3]", "result": "yes"}]}
{"substance": "Vacuolar membrane protein PEP3, P27801", "values": [{"measurement": "listed as a hit", "setting": "[4]", "result": "yes"}]}
